Laboratory results published in PubChem BioAssay AID651965 (National Center for Advancing Translational Sciences (NCATS), 2013).
The list shows a part of the results, in another mix than the full data. Inconclusive results are not listed. Active and inactive are the calls of the source. Calls come from the whole dose curve; as a rule, active = well fitted falling curve with a large enough effect; inconclusive = small, poorly fitted or top-dose-only effect; inactive = no such curve, though single readings can be large or run the other way.

Chains of the proteins cited; added tags and fusions are not shown.
UniProt P80244, whole entry: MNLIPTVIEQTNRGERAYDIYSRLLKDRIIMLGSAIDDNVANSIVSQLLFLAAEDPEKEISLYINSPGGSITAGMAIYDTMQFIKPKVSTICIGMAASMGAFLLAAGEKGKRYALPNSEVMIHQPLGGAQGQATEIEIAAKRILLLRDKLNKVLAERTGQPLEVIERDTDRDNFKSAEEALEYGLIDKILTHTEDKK

target: ATP-dependent Clp protease proteolytic subunit (Bacillus subtilis (strain 168)) (UniProt P80244); assay: qHTS Assay for Activators of ClpP; note: the source files actives as falling curves though it sought activators and does not explain the sign; nearly all actives have a fitted effect of over 65% in size; details: purified B. subtilis ClpP, FRET peptide cleavage, 20 min; at 57.5 µM (top of the series)

Row | Compound | activity change, negative = active
1 | O=[N+]([O-])c1cc([N+](=O)[O-])c(Nc2nnnn2CCO)c([N+](=O)[O-])c1 | inactive: -1.67%
2 | O=C(/C=C/c1ccccc1)OC1CN2CCC1CC2 (centres undefined) | inactive: -0.814%
3 | Cc1nn(-c2ccccc2)c2c1P(=O)(N1CCOCC1)N(C)C(c1ccccc1)=N2 (centres undefined) | inactive: 0.453%
4 | Cc1ccc(C(=O)OC2CN3CCC2CC3)cc1 (centres undefined) | inactive: 0.501%
5 | COc1cc([N+](=O)[O-])ccc1[N+](=O)[O-] | inactive: -0.608%
6 | COc1cc(C2NCCC3(OCCO3)C2(C)C)cc(OC)c1OC.O=[N+]([O-])c1cc([N+](=O)[O-])c(O)c([N+](=O)[O-])c1 (centres undefined) | inactive: 1.54%
7 | CP(=O)(Nc1ccc(SC(F)(F)F)cc1)Oc1ccccc1 (centres undefined) | inactive: -1.37%
8 | Nc1cccc([As](=O)(O)c2ccccc2)c1 | inactive: -0.695%
9 | Cc1ccc(OCC(=O)OC2CN3CCC2CC3)cc1 (centres undefined) | inactive: 1.45%
10 | O=[As](O)(c1cccs1)c1cccs1 | inactive: 0.952%
11 | O=P1(Nc2ccc(Br)cn2)COc2ccccc2OC1 | inactive: -3.11%
12 | NS(=O)(=O)c1cccc(NC(=O)COC(=O)C(O)(c2ccccc2)c2ccccc2)c1 | inactive: 1.99%
13 | COc1ccccc1OP(C)(=O)Nc1c(C)cccc1C (centres undefined) | inactive: -2.19%
14 | CN1CCCCC1COC(=O)C1(O)c2ccccc2CCc2ccccc21 (centres undefined) | inactive: -3.57%
15 | O=P1(Nc2ncccn2)COc2ccccc2OC1 | inactive: 1.39%
16 | O=P1(N(CCCl)CCCl)NCCC(C(F)(F)F)O1 (centres undefined) | inactive: -0.457%
17 | Clc1n[nH]nc1-c1nn[nH][15n]1 | inactive: -0.677%
18 | CN(Cc1cccnc1)C(=O)COc1ccc(Cl)c(Cl)c1.O=[N+]([O-])c1cc([N+](=O)[O-])c(O)c([N+](=O)[O-])c1 | inactive: 2.53%
19 | CC(C)(C)C(=O)NC(Sc1ncccn1)C(Cl)(Cl)Cl (centres undefined) | inactive: 0.214%
20 | O=P1(Nc2ccccn2)COc2ccccc2OC1 | inactive: -9.29%
21 | CCC1=CC2Cc3nc4ccc(Cl)cc4c(N)c3C(C1)C2 (centres undefined) | inactive: -24.5%
22 | O=C(O)C(O)c1ccc(N(CCCl)CCCl)cc1.c1ccncc1 (centres undefined) | inactive: -1.7%
23 | CCOP(=O)(NC(=NC(C)c1ccccc1)NC(C)c1ccccc1)OCC (centres undefined) | inactive: 0.388%
24 | Nc1ccc(CCCCOc2ccccc2)cc1.O=[N+]([O-])c1cc([N+](=O)[O-])c(O)c([N+](=O)[O-])c1 | inactive: 1.93%
25 | CCOP(=O)(Nc1ccc(C)cn1)OCC | inactive: -29.2%
26 | CN(CCCl)Cc1cc(Cl)c(NC2=NCCN2)c(Cl)c1 | inactive: -2.44%
27 | Cc1ccc(S(=O)(=O)N(CCCN)CCCc2c(C)nc(N)[nH]c2=O)cc1.O=[N+]([O-])c1cc([N+](=O)[O-])c(O)c([N+](=O)[O-])c1 | inactive: -2.18%

Row | Compound | activity change, negative = active
28 | CC(C)/C=N\N=C(\N)N[N+](=O)[O-] | inactive: 0.691%
29 | CN(C(=O)Cc1ccc(Cl)c(Cl)c1)[C@@H]1CCCC[C@H]1N1CCCC1 | inactive: -3.04%
30 | CC1(CBr)Cn2c(nc3ccccc3c2=O)S1 (centres undefined) | inactive: -1.24%
31 | Cc1nc2ccc3ccccc3c2s1.O=[N+]([O-])c1cc([N+](=O)[O-])c(O)c([N+](=O)[O-])c1 | inactive: 1.26%
32 | COc1ccccc1CNC(=O)COC(=O)C(O)(c1ccccc1)c1ccccc1 | inactive: -2.64%
33 | Cc1cccc(OCC(=O)OC2CN3CCC2CC3)c1 (centres undefined) | inactive: -0.701%
34 | O=[As](O)(c1cccc(O)c1)c1cccc(O)c1 | inactive: -1.78%
35 | Cc1cc(C)cc(OP(C)(=O)Nc2ccc(C)cc2C)c1 (centres undefined) | inactive: 0.515%
36 | CCOC(=O)c1ccc(NP(C)(=O)Oc2cc(C)cc(C)c2)cc1 (centres undefined) | inactive: 0.63%
37 | O=[As](O)(O)c1cccnc1 | inactive: 0.071%
38 | COc1ccccc1OP(C)(=O)Nc1cccc(Br)c1 (centres undefined) | inactive: 0.755%
39 | CS(=O)(=O)c1ccc(Cl)c(NC(=O)COC(=O)C(O)(c2ccccc2)c2ccccc2)c1 | inactive: -0.677%
40 | Cc1cc(C)cc(OP(C)(=O)Nc2ccccn2)c1 (centres undefined) | inactive: -2.4%
41 | Cc1ccc(NCCc2c([N+](=O)[O-])cc([N+](=O)[O-])cc2[N+](=O)[O-])cc1 | inactive: 1.56%
42 | Nc1cccc2c([As](=O)(O)O)cccc12 | inactive: -15.4%
43 | Cc1ccc(C)c(NP(C)(=O)Oc2ccccc2)c1 (centres undefined) | inactive: -1.46%
44 | CCCOP(=S)(Nc1nc(N)cc(=O)[nH]1)OCCC | inactive: 0.13%
45 | CCOP1(=S)c2c(C)nn(CCC#N)c2N=C(c2ccccc2F)N1C (centres undefined) | inactive: -0.65%
46 | O=P(Nc1nccs1)(Oc1ccccc1)Oc1ccccc1 | inactive: -0.0524%
47 | O=P(Nc1nccs1)(c1ccccc1)c1nc2ccccc2s1 (centres undefined) | inactive: -4.32%
48 | N#CCCN(C(=O)COC(=O)C(O)(c1ccccc1)c1ccccc1)c1ccc(F)cc1 | inactive: -0.354%
49 | CCOP1(=S)c2c(C)nn(CCC#N)c2N=C(c2ccc(F)cc2)N1C (centres undefined) | inactive: -3.08%
50 | CN(C(=O)Cc1ccccc1)[C@@H]1CC[C@]2(CCCO2)C[C@H]1N1CCCC1 | inactive: -0.123%
51 | O=[N+]([O-])c1ccc2c(c1)nnn2O | inactive: 0.222%
52 | CC1=NCCc2c1[nH]c1ccccc21.O=[N+]([O-])c1cc([N+](=O)[O-])c(O)c([N+](=O)[O-])c1 | inactive: -13.5%
53 | CN(C(=O)Cc1ccc(Cl)c(Cl)c1)[C@H]1CC[C@@]2(CCCO2)C[C@@H]1N1CCCC1 | inactive: -0.0922%
54 | NC(=O)Nc1ccc([As](=O)(O)O)cc1 | inactive: 0.534%
